Results published in patent publication US12599649B2, “Bioactive polypeptides for improvements in plant protection, growth and productivity” (priority 2017, dated 2026).

How the values were obtained:
Assay type in all cases: in vivo
corn [1] = assay: Corn seed treatment with Flg22 polypeptides and cellobiose, yield (Example 37); details: polypeptide at 1.0 μM (combination 0.33 μM each; cellobiose 1 mM)
soybean = assay: Soybean seed treatment with Flg22 polypeptides and cellobiose, yield (Example 38); details: polypeptide at 1.0 μM (combination 0.33 μM each; cellobiose 1 mM)
corn [2] = assay: Foliar HpaG-like and At.PSKα on corn, plant height in non-stress and stress (Example 27); details: separate set of replicated trials, HpaG-like 1 μM, At.PSKα 100 nM foliar

Row | Molecule | Average Change in Bu/Ac compared to Untreated Control (corn [1]) | Average Yield Bu/Ac (soybean; soybean seed treatment 0.14 Fl. oz per unit, 1 location) [Bu/Ac] | Average Change in Bu/Ac compared to Untreated Control (soybean; soybean seed treatment) | Plant Height (cm) Percentage Change Compared to Control (0.01% surfactant) Non-Stress (corn [2]) [%] | Plant Height (cm) Percentage Change Compared to Control (0.01% surfactant) Stress (corn [2]; stress)
1 | O=C[C@H](O)[C@@H](O)[C@H](O[C@@H]1O[C@H](CO)[C@@H](O)[C@H](O)[C@H]1O)[C@H](O)CO [Cellobiose] | +11.67 Bu/Ac | 43.98 | +2.87 Bu/Ac | – | –
2 | At. PSKα ([sY]I[sY]TQ; listed as Arabidopsis thaliana) | – | – | – | −11.8 | +6.1%

Non-standard residues stand in square brackets, D forms with d. No end group written: not given here. sY = N[C@@H](Cc1ccc(OS(=O)(=O)O)cc1)C(=O)O
